Results on 2 molecules are retold here after patent US8039668B2, “Naphthalene-based inhibitors of anti-apoptotic proteins” (Burnham Institute for Medical Research, priority 2008, dated 2011).

Amino acid sequences for entries named in this document (tags omitted). Residues count along the entry.
UniProt Q07817, 1-209 limits assumed: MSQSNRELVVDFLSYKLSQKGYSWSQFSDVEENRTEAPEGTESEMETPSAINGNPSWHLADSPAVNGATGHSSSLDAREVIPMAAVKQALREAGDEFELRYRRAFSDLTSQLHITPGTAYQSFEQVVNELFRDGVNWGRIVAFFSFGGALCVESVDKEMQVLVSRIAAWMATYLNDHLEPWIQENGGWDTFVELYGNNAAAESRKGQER

Assay [1] deals with BP3 human B-cell lymphoma cell line. The experiment in a line: Annexin V-FITC and propidium iodide assay. Particulars: read-out: IC50 inhibiting cell growth, BP3. The format is cell-based.
Assay [2] deals with H460 human lung cell line. The experiment in a line: Cell viability, ATP-LITE assay. The format is cell-based. The protocol: (§1) The activity of the compounds against human cancer cell lines (PC3ML, H460, H1299, RS11846) were assessed by using the ATP-LITE assay (PerkinElmer). All cells were seeded in either F12 or RPMI1640 medium with 5 mM L-glutamine supplemented with 5% fetal bovine serum (Mediatech Inc.), penicillin and streptomycin (Omega). For maintenance, cells were cultured in 5% FBS. Cells plated into 96 well plates at varying initial densities depending on doubling time. H460 and H1299 plated at 2000 cells/well, A549 and PC3 at 3000 cells/well, and RS118456S at 10,000 cells/well. Compounds were diluted to final concentrations with 0.1% DMSO. Prior to dispensing compounds onto cells, fresh 5% media was placed into wells. Administration of compounds occurred 24 hours after seeding into the fresh media. Cell viability was evaluated using ATP-LITE reagent (PerkinElmer) after 72 hours of treatment. Data were normalized to the DMSO control-treated cells using Prism version 5.01 (Graphpad Software).

Another assay has as its target BCL-XL (Homo sapiens, UniProt Q07817). The experiment in a line: Competitive fluorescence polarization assay (FPA), Bak BH3 peptide. The format is binding. On the set-up: 100 nM GST-BCL-XL ΔTM protein. The protocol:
For competitive binding assays, 100 nM GST-BCL-XL ΔTM protein was preincubated with the tested compound at varying concentrations in 47.5 μL PBS (pH=7.4) in 96-well black plates at room temperature for 10 min, then 2.5 μL of 100 nM FITC-labeled Bak BH3 peptide was added to produce a final volume of 50 μL. The wild-type and mutant Bak BH3 peptides were included in each assay plate as positive and negative controls, respectively. […] IC50 was determined by fitting the experimental data to a sigmoidal dose-response nonlinear regression model (SigmaPlot 10.0.1, Systat Software, Inc., San Jose, Calif., USA). Data reported are mean of three independent experiments±standard error (SE). […] Fluorescence polarization was measured after 10 min.

The next assay deals with PC3ML cells. The experiment in a line: Cell viability, ATP-LITE assay. The format is cell-based, human. Particulars: vs Apogossypol. As to the method:
as §1

“And” between values parts separate entries of the source, which are not always exact repeats. Equal entries are not always repeated. Where two headings read alike, the source gives them in different places.

Turning to `Cc1cc2c(C(=O)NCC(C)c3ccccc3)c(O)c(O)cc2c(O)c1-c1c(C)cc2c(C(=O)NCC(C)c3ccccc3)c(O)c(O)cc2c1O` (stereo not drawn) [Compound 8r, 1,1′,6,6′,7,7′-hexahydroxy-3,3′-dimethyl-N^5,N^5′-bis(2-phenylpropyl)-2,2′-binaphthyl-5,5′-dicarboxamide], the IC50 in assay [1] came to 660 nM; on BCL-XL (text b221, read-out: IC50 Bcl-XL), 760 nM. Further, the concentration for a half-maximal effect (EC50) in assay [2] (NCI-H460, ATP-LITE assay) turned out to be 330 nM; in assay [2] (NCI-H460, Table 3, ATP-LITE assay) it was 330 nM.

Consider `Cc1ccc(CC(=O)c2c(O)c(O)cc3c(O)c(-c4c(C)cc5c(C(=O)Cc6ccc(C)cc6)c(O)c(O)cc5c4O)c(C)cc23)cc1` [Compound XII, 1,1′-(1,1′,6,6′,7,7′-hexahydroxy-3,3′-dimethyl-2,2′-binaphthyl-5,5′-diyl)bis(2-p-tolylethanone)], for which the “fold more potent than Apogossypol, PC3ML” value with PC3ML cells is 2-5. In addition, the IC50 on BCL-XL (FPA IC50 (BCL-XL), Table 9) is 140 to 450 nM and 320 nM.
